Data taken from patent publication US5962640A, “Methods for preparing novel dipeptide compounds or pharmacuetically acceptable salts thereof” (Japan Energy Corporation, priority 1995, dated 1999).

Molecular target: T1, Recombinant HIV protease (Human immunodeficiency virus type 1 group M subtype B, UniProt P04585)
T1 construct: Recombinant HIV protease
Test: HIV protease inhibitory activity (cleavage of synthetic hepta-peptide, HPLC)
Type: biochemical
Settings: 37° C., 60 min
Method: According to a method which was already reported in publications (Yoshiaki Kiso, Yuuki-gosei-kagaku-kyokai-shi, vol. 52, 403-412 (1994), Japanese laid-open patent, No. 170722(1993), etc.), the compounds of example 1-42 were evaluated to verify high HIV protease inhibitory activity of the dipeptide compound of the present invention.
Recombinant HIV protease (Biochemistry, 250 (9), 264 (1990)) and synthetic hepta-peptide (H-Ser-Gln-Asn-Tyr-Pro-Ile-Val-OH/trifluoroacetic acid salt) were used for assay of protease activity. Peptide fragment H-Pro-Ile-Val-OH formed by cleavage between -Tyr . . . Pro of said substrate after a reaction in the presence of various concentration of tested compound at 37° C. for 60 min. was determined by reversed phase HPLC and the inhibitory rate was calculated (referred to Japanese laid-open unexamined patent, No. 170722/1993). […]

## CSC[C@H](NC(=O)COc1cccc2cnccc12)C(=O)N[C@@H](Cc1ccccc1)[C@H](O)C(=O)N1CSC[C@H]1C(=O)NC(C)(C)C [KNI-272, (R)-3-[(2S,3S)-3-(N-(isoquinoline-5-yloxy)acetyl-methylthio-L-alanyl)amino-2-hydroxy-4-phenylbutanoyl]1,3-thiazolidine-4-N'-t-butylcarboxamide, reference compound]
Concentration 50 nM (final)
  HIV protease inhibitory activity (%): 96.7%
Concentration 5 μM (final)
  HIV protease inhibitory activity (%): > 99.0%
